pIC50: −log10 of the molar value.
Molecular target: acetylcholinesterase (AChE), human recombinant (Homo sapiens, UniProt P22303)
Assay: Acetylcholinesterase inhibition, IC50 (AChE, mE, hr)
Format: biochemical
Conditions: read-out: IC50 (AChE, mE, hr); human recombinant enzyme; pre-incubation of the enzyme with inhibitor

Amino acid sequences for entries named in this document (tags omitted). Residues count along the entry.
UniProt P22303, 32-614 limits assumed: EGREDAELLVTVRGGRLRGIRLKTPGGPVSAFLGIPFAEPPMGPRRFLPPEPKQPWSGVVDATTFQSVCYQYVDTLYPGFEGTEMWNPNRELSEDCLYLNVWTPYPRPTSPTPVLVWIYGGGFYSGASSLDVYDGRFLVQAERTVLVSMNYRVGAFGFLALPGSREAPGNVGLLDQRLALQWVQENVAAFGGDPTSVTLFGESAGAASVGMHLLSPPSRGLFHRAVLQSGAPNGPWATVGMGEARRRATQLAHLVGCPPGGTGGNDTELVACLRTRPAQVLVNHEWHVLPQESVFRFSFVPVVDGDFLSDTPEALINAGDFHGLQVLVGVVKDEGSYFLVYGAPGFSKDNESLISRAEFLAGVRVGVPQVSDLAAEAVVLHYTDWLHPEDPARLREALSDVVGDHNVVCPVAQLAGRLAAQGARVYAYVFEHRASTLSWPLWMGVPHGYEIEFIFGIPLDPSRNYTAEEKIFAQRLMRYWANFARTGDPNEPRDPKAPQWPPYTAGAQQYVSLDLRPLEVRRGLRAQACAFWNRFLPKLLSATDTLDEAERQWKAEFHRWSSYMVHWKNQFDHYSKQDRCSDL

**Q.** How did the pIC50 turn out when `COc1ccc2c3c1O[C@@H]1CC(O)C=CC31CC[N+]([O-])=C2` (stereo partly shown) was run?
**A.** Its pIC50 is 4.30.

From patent US7166588B2 (priority 2000, dated 2007)
